Experimental data reported in patent publication US12414990B2, “Use of HLA-A*11:01-restricted hepatitis B virus (HBV) peptides for identifying HBV-specific CD8+ T cells” (AGENCY FOR SCIENCE, TECHNOLOGY AND RESEARCH, priority 2019, dated 2025).

Tested on: HLA-A*11:01-restricted antigen-specific CD8+ T cells in patient's PBMC
Assay: Highly multiplexed combinatorial pMHC tetramer staining with mass cytometry (epitope mapping, frequency of antigen-specific CD8+ T cells)
Settings: patients with detected epitope-specific CD8+ T cells / patients tested, Immune Tolerant (IT) group

For RVIDPRRCLK, the “Hits (Freq > 0.002%) IT” value was 1/8.
